# Reported water solubility values for industrial, environmental and drug-like chemicals

Values as listed in the OPERA 2.9 repository of K. Mansouri.

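The numbers are reported measurements, compiled and curated for the OPERA QSAR suite. The files give a single number for a compound and property, which may rest on several reports. Method, purity and exact conditions of the single measurements are not given. Where a salt, mixture or single isomer is drawn, the source does not say that exactly this form was tested. Unmarked limits or estimates from the upstream databases cannot be ruled out.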

Water solubility is log10 of mol/L, nominally at 25 °C; higher is more soluble.

| structure (SMILES) | log S (log10 mol/L) |
|---|---|
| Clc1ccc(Oc2c(Cl)c(Cl)c(Cl)c(Cl)c2Cl)cc1Cl | -9.46 |
| Cc1nnc(NS(=O)(=O)c2ccc(N)cc2)s1 | -2.41 |
| Nc1ccc(C(=O)O)c(S(=O)(=O)O)c1 | -1.86 |
| CC(=O)OC1C(C)(C)[C@H]2CC[C@]1(C)C2 (stereo partly specified) | -3.875 |
| NCC[C@H](O)C(=O)N[C@@H]1C[C@H](N)[C@@H](O[C@H]2O[C@H](CN)CC[C@H]2N)[C@H](O)[C@H]1O[C@H]1O[C@H](CO)[C@@H](O)[C@H](N)[C@H]1O | -1.13 |
| c1ccc(C2CCCCC2)cc1 | -4.47 |
| CCCCC/C=C/CCC=O | -3.302 |
| Clc1cc(Cl)c(Oc2c(Cl)cccc2Cl)cc1Cl | -7.12 |
| N#CCCN(CCC#N)c1ccc(N=Nc2c(Cl)cc([N+](=O)[O-])cc2Cl)cc1 | -7.115 |
| O=C(O)COc1ccc2sc3ccccc3c(=O)c2c1 | -4.187 |
| CC[C@]12CC[C@@H]3c4ccc(OC)cc4CC[C@H]3[C@@H]1CC[C@@H]2O | -4.876 |
| COC(=O)c1sccc1N | -1.895 |
| CC(C)(C)OC(=O)N1CC[C@@H](N2CC/C(=C\C3=C(C(=O)OC(c4ccccc4)c4ccccc4)N4C(=O)[C@@H](NC(=O)/C(=N\OC(c5ccccc5)(c5ccccc5)c5ccccc5)c5nsc(N)n5)[C@H]4SC3)C2=O)C1 | -7.717 |
| NNC(=O)c1cccs1 | -0.755 |
| CN1CC(=O)NC1=N | -0.15 |
| Cc1nnc(C(C)C)n1[C@H]1C[C@H]2CC[C@@H](C1)N2CC[C@H](NC(=O)C1CCC(F)(F)CC1)c1ccccc1 | -4.685 |
| Nc1ccc2[nH]c(=O)[nH]c2c1 | -2.335 |
| CCCCCC1CCCC1=O (stereo not drawn) | -2.743 |
| CCCCCCCC[C@@H](O)CCCCCCCCC(=O)O | -6.737 |
| CCCCCCCCc1c(CC)nc2ncnn2c1N | -6.26 |
| CC(=O)[C@@]1(O)CC[C@H]2[C@@H]3C=CC4=CC(=O)C=C[C@]4(C)[C@H]3CC[C@@]21C | -4.213 |
| N#Cc1cccc([N+](=O)[O-])c1C#N | -2.937 |
| CCc1nc2c(=O)[nH]c(=O)nc-2[nH]c1CC | -2.36 |
| CCN(CCC#N)c1ccc(N=Nc2ccc([N+](=O)[O-])cc2Cl)cc1 | -4.253 |
| O=c1ncc2nccnc2[nH]1 | -1.948 |
| O=C(O)N1CCN(CCN2CCN(C(=O)O)CC2)CC1 | -1.178 |
| CC1OCC(c2ccccc2)O1 (stereo not drawn) | -1.805 |
| C[C@H](O[C@H](C)C(N)=O)C(N)=O | 0.034 |
| CCCCCC1CCC(C2CCC(CCC)CC2)CC1 (stereo not drawn) | -6.746 |
| CCCCC(CC)CN(CC(CC)CCCC)CC(CC)CCCC (stereo not drawn) | -8.248 |
| CCN(CC)C(=S)[S-].CCN(CC)C(=S)[S-].[Zn+2] | -5.533 |
| O=C(O)c1cccc(C(F)(F)F)c1 | -3.11 |
| CCCCN(c1nc(N(CCCC)C2CC(C)(C)NC(C)(C)C2)nc(N(CCCCCCN(c2nc(N(CCCC)C3CC(C)(C)NC(C)(C)C3)nc(N(CCCC)C3CC(C)(C)NC(C)(C)C3)n2)C2CC(C)(C)NC(C)(C)C2)C2CC(C)(C)NC(C)(C)C2)n1)C1CC(C)(C)NC(C)(C)C1 | -6.153 |
| NCCCCN | 1 |
| COC(=O)c1ccc(C(C)(C)C)cc1 | -3.74 |
| O=C(CCCN1CCC(O)(c2ccccc2)CC1)c1ccccc1 | -4.063 |
| C=CCc1ccc(OC(C)=O)c(OC)c1 | -2.703 |
| CC(C)OC(=O)OCOP(=O)(COC(C)Cn1cnc2c(N)ncnc21)OCOC(=O)OC(C)C.O=C(O)/C=C/C(=O)O (stereo partly drawn) | -1.676 |
| CCCCCCCC1CCCC1=O (stereo not drawn) | -3.769 |
| O=C1CCCCCCCCCOCCCCCO1 | -3.884 |
| Nc1nc(=O)c2nccnc2[nH]1 | -2.962 |
| CC(C)(C)C(=O)CCc1ccc(Cl)cc1 | -4.036 |
| CCCCCCCCCCCC(=O)OCCCCCC | -6.755 |
| CCC(=O)OCCCCCOC(=O)CC | -2.231 |
| CC(C)=CCC/C(C)=C/COC=O | -3.746 |
| CC(=O)CCC=C(C)C | -1.621 |
| CC(=O)OCCN(CCC#N)c1ccc(N=Nc2c(Cl)cc([N+](=O)[O-])cc2Cl)cc1 | -7.051 |
| C[C@@H]1C[C@H]2[C@@H]3C[C@H](F)C4=CC(=O)C=C[C@]4(C)[C@@]3(F)[C@@H](O)C[C@]2(C)[C@@]1(O)C(=O)S | -3.86 |
| CCCC(=O)Nc1ccc(OCC(O)CNC(C)C)c(C(C)=O)c1 (stereo not drawn) | -2.2 |
| O=C(O)/C=C\C(=O)OCCOCCOCCOC(=O)/C=C\C(=O)O | 0.16 |
| C[C@H]1CC[C@H](C(N)=O)CC1 | -2.172 |

3 of these entries, quoted again:

| structure (SMILES) | log S (log10 mol/L) |
|---|---|
| C[C@@H]1C[C@H]2[C@@H]3C[C@H](F)C4=CC(=O)C=C[C@]4(C)[C@@]3(F)[C@@H](O)C[C@]2(C)[C@@]1(O)C(=O)S | -3.86 |
| CC(C)=CCC/C(C)=C/COC=O | -3.746 |
| Nc1nc(=O)c2nccnc2[nH]1 | -2.962 |